Measured values from ChEMBL document CHEMBL4385611, “Difluoromethylene at the γ-Lactam α-Position Improves 11-Deoxy-8-aza-PGE1 Series EP4 Receptor Binding and Activity: 11-Deoxy-10,10-difluoro-8-aza-PGE1 Analog (KMN-159) as a Potent EP4 Agonist” (J Med Chem, 2019).

Sequences of proteins named here, by UniProt entry; tags and fusion partners are left off. A change or cut given only in a name is not applied to a line headed by its entry.
UniProt P43116: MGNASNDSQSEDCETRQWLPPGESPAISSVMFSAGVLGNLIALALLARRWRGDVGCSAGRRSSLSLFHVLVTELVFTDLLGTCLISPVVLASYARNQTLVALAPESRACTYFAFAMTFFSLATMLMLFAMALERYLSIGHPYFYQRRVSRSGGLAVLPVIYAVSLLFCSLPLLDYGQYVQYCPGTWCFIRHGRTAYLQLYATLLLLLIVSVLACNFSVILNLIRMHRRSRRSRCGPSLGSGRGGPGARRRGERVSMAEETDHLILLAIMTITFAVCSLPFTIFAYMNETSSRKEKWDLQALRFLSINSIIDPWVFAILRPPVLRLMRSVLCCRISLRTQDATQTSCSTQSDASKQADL

Tests used:
[1] = molecular target: T1, Prostaglandin E2 receptor EP2 subtype (Homo sapiens, UniProt P43116); assay: Displacement of [3H]PGE2 from human recombinant EP2 receptor expressed in HEK293 cell membranes after 120 mins by liquid scintillation counting method
[2] = molecular target: T1, Prostaglandin E2 receptor EP2 subtype; assay: Agonist activity at human EP2 receptor expressed in HEK293T/17 cells assessed as increase in intracellular cAMP level incubated for 30 mins by ELISA; format: functional, cell-based
[3] = molecular target: T1, Prostaglandin E2 receptor EP2 subtype; assay: Agonist activity at human EP2 receptor expressed in HEK293T/17 cells assessed as increase in GalphaS-mediated CREB activation measured after 6 to 24 hrs by SEAP reporter gene-based chemiluminescence assay; format: functional, cell-based

Ki [1]: 1.03 nM
EC50 [2]: 331 nM
EC50 [3]: 9.3 nM
Compound: CCCCC[C@H](O)/C=C/[C@H]1[C@H](O)CC(=O)[C@@H]1C/C=C\CCCC(=O)O [DINOPROSTONE]
